The target of experiment [1] is LINE1 reverse transcriptase (Homo sapiens, UniProt O00370). Kind of experiment: Stable artificial-intron Cis LINE1 reporter assay. Conditions: HeLa L1 artificial-intron reporter cells, doxycycline-induced, 72 h, Firefly luciferase activity.
Experiment [2] deals with IFN production in THP1 TREX1 KO cells. Kind of experiment: Cellular assay for altering IFN production in THP1 TREX1 KO cells. Conditions: for EC50: read-out: IFN EC50, inducers of IFN; for EC50 / IC50: in the presence of 1 μM 5-aza-2′-deoxycytidine; for EC50 / Maximum IFN Induction / IC50: five days; for Concentration at Max Induct.: lowest concentration at which the maximum-fold IFN induction was observed; for Maximum IFN Induction: maximum-fold IFN induction, 1 μM 5-aza-2′-deoxycytidine; for IC50: read-out: IFN IC50, inhibitors of IFN. As to the method: (§1) THP1-Dual™ KO-TREX1 cells were purchased from Invivogen (cat #thpd-kotrex). The THP1-Dual™ KO-TREX1 cells were cultured in RPMI 1640, 10% heat-inactivated fetal bovine serum, 25 mM HEPES, 10 μg/mL Blasticidin, and […] Zeocin. THP1-Dual™ KO-TREX cells were treated with a dose titration of test compound in the presence of 1 μM 5-aza-2′-deoxycytidine (Sigma, cat #189825). Type 1 Interferon and cell viability were assessed after five days of treatment.
Stock solution of test compound was prepared in DMSO followed by a three-fold dilution in DMSO. Additional 50× dilution was prepared in cell culture media for each dilution. 10 μL of diluted test compound was then added to a 384-well plate.
(§2) THP1-Dual™ KO-TREX1 cells were treated with 1 μM 5-aza-2′-deoxycytidine. THP1-Dual™ KO-TREX1 cells (50 μL) were added to each well of the 384-well plate containing test compound titration at 10,000 cells/well. Cells were incubated at 37° C., 5% CO2 in a humidified incubator for five days. On day five, 20 μL of cell supernatant was transferred to a 384-well, white-walled plate, followed by addition to each well of 50 μL of QUANTI-LUC solution containing stabilizer. Luminescence was detected on a plate reader according to manufacturer's instructions.
(§3) For certain compounds, the assay was run in a 96-well format, with the following modifications: • 190 μL, instead of 50 μL, of cells were added to each well, to provide 50,000 cells/well, instead of 10,000 cells/well, • Cells were incubated for 6 days, instead of 5 days, • 25 μL, instead of 20 μL, of cell supernatant was added to the white-walled plate for QUANT-LUC treatment; and • 25 μL, instead of 30 μL, of CellTiter-Glo was added to assess cell viability.
Percent inhibition of interferon was calculated using the following analysis: (Average DMSO-Sample)/(Average DMSO-Average 30 μM control reagent)*100. The control reagent for inhibition of interferon was a specific nucleoside reverse-transcriptase inhibitor with molecular weight <600 a.m.u. Percent induction of interferon was calculated using the following analysis: (Sample-Average DMSO)/(10 μM control reagent-Average DMSO)*100. The control reagent for induction of interferon was compound 8 (4′-ethynyl-2-chloro-2′-deoxyadenosine).

The subject of experiment [3] is THP1-Dual™ KO-TREX1 cells. Kind of experiment: CellTiter-Glo cell viability in THP1-Dual KO-TREX1 cells. Conditions: read-out: CTG IC50; CellTiter-Glo inhibition of cell viability, after five days of treatment. The procedure:
as §1, §2, §3
The remaining cells were assessed for cell viability by adding 30 μl of CellTiter-Glo (Promega, G9683) solution to each well, and placed on a shaker for 10 minutes at room temperature. Luminescence was detected on a plate reader, according to manufacturer's instructions. Percent inhibition of cell viability using CellTiter-Glo was calculated using the following analysis: (Average DMSO-Sample)/(Average DMSO-Average 20 μM control reagent)*100. The control reagent was Z-Leu-Leu-leucinal (see, for example, https://pubchem.ncbi.nlm.nib.gov/compound/462382).
For orientation: Cellular ATP, detected with luciferase, serves as a proxy for viable cell number.

Several values for one entry are separate records, joined by “and”; a condition that tells them apart may be missing. Equal entries are not always repeated.

As usually defined, the IC50 is the concentration that inhibits the measured activity by half. As usually defined, the EC50 is the concentration that produces a half-maximal response. Take `C#C[C@]1(COP(=O)(N[C@H](C)C(=O)OC(C)C)OCOC(=O)OC(C)C)O[C@@H](n2cnc3c(N)nc(Cl)nc32)C[C@@H]1O` (stereo partly drawn): the IC50 in experiment [1] is > 500 nM. The EC50 in experiment [2] was > 10 µM.
In the case of `C#C[C@]1(COP(=O)(N[C@@H](C)C(=O)OC)Oc2ccc(Br)cc2)O[C@@H](n2cnc3c(N)nc(Cl)nc32)C[C@@H]1O` (stereo partly drawn), the IC50 in experiment [1] was < 50 nM. In addition, in experiment [2], the “Concentration at Max Induct.” value was 10 µM and 6.7 µM; the “Maximum IFN Induction” value is recorded as “>> (values from 1.50 to 2.00)”; the EC50 lay within 1 to 10 µM. Besides, the IC50 in experiment [3] was > 10 µM.
Consider `C#C[C@]1(COP(=O)(N[C@@H](C)C(=O)OCC)Oc2ccccc2)O[C@@H](n2cnc3c(N)nc(F)nc32)C[C@@H]1O` (stereo partly drawn), for which the IC50 in experiment [1] is < 50 nM. For the same compound, the EC50 in experiment [2] was > 10 µM.
As to `C#C[C@]1(COP(=O)(N[C@@H](C)C(=O)OCc2ccccc2)Oc2ccccc2)O[C@@H](n2cnc3c(N)nc(Cl)nc32)C[C@@H]1O` (stereo partly drawn), the concentration for half-maximal inhibition (IC50) in experiment [1] was < 50 nM. Also, in experiment [2], the “Maximum IFN Induction” value is given as “>> (values from 1.50 to 2.00)” and the EC50 was < 1 µM. Also, the IC50 in experiment [3] is > 10 µM.
Take `C#C[C@]1(COP(=O)(N[C@@H](C)C(=O)OCC)Oc2ccccc2)O[C@@H](n2cnc3c(N)ncnc32)C[C@@H]1O` (stereo partly drawn): the half-maximal inhibitory concentration (IC50) in experiment [1] was < 50 nM.
`C#C[C@]1(COP(=O)(NC(C)(C)C(=O)OC(C)C)Oc2ccccc2)O[C@@H](n2cnc3c(N)nc(F)nc32)C[C@@H]1O` (stereo partly drawn): the half-inhibitory concentration (IC50) is < 50 nM and 50 to 500 nM in experiment [1]; > 5 µM in experiment [2]; > 10 µM in experiment [3]. For the same compound, the EC50 in experiment [2] was > 10 µM.
As to `C#C[C@@]12COP(=O)(OC(C)C)O[C@H]1C[C@H](n1cnc3c(N)nc(Cl)nc31)O2` (stereo partly drawn) [IV-1], in experiment [1], the IC50 is < 50 nM and 50 to 500 nM. In experiment [2], the “Concentration at Max Induct.” value came to 1.67 µM, the “Maximum IFN Induction” value is listed as “> (values from 1.00 to less than 1.50)” and the EC50 was < 1 µM. In addition, the IC50 in experiment [3] was > 10 µM.
Regarding `C#C[C@]1(COP(=O)(N[C@@H](C)C(=O)OCc2ccccc2)Oc2ccccc2)O[C@@H](n2cnc3c(N)nc(F)nc32)C[C@@H]1O` (stereo partly drawn), the IC50 was < 50 nM in experiment [1] and 1.2 µM in experiment [3].
As to `C#C[C@]1(COP(=O)(N[C@@H](C)C(=O)OC(C)C)OCOC(=O)OC(C)C)O[C@@H](n2cnc3c(N)nc(F)nc32)C[C@@H]1O` (stereo partly drawn), the IC50 in experiment [1] was 50 to 500 nM; in experiment [2], > 5 µM; in experiment [3] it was > 10 µM.
As for `C#C[C@]1(COP(=O)(N[C@@H](C)C(=O)OCC)Oc2ccccc2)O[C@@H](n2cnc3c(N)nc(Cl)nc32)C[C@@H]1O` (stereo partly drawn), the concentration for half-maximal inhibition (IC50) in experiment [1] was in the range of 50 to 500 nM. Moreover, in experiment [2], the “Concentration at Max Induct.” value is 10 µM; the “Maximum IFN Induction” value is recorded as “>> (values from 1.50 to 2.00)”; the EC50 is < 1 µM and 1 to 10 µM. Further, the IC50 in experiment [3] is > 10 µM.
Regarding `C#C[C@]1(COP(=O)(N[C@@H](C)C(=O)OC)Oc2ccc(Br)cc2)O[C@@H](n2cnc3c(N)nc(F)nc32)C[C@@H]1O` (stereo partly drawn), the IC50 in experiment [1] was < 50 nM. In addition, the 50% effective concentration (EC50) in experiment [2] is > 10 µM.
Regarding `C#C[C@]1(COP(=O)(N[C@H](C)C(=O)OC(C)C)OCOC(=O)OC(C)C)O[C@@H](n2cnc3c(N)nc(F)nc32)C[C@@H]1O` (stereo partly drawn), in experiment [1], the IC50 is > 500 nM.

(Values after patent publication US20240366649A1, “4-ETHYNYL-3-HYDROXY-TETRAHYDROFURANYL-ADENINE PHOSPHORAMIDATES AND RELATED COMPOUNDS AND THEIR USE IN TREATING MEDICAL CONDITIONS” (ROME THERAPEUTICS, INC., priority 2021, published 2024).)
